{
  "source": "patent US6852332B2",
  "about": "“Liquid vitamin composition” (Adisseo France S.A.S., priority 2000, dated 2005)",
  "test": "Stability of second liquid vitamin formulation (Example 1), stored at 40° C., HPLC",
  "format": "physicochemical",
  "method": "The stability of each formulation in the composition each was determined over a 4 weeks period. The concentration of vitamin in the formulation was analysed using standard analytical methods (high performance liquid chromatography). The formulations were stored at 40° C. over the test period.",
  "data": [
    {"substance": "thiamine mononitrate [Vitamin B1]", "values": [
      {"measurement": "CONC at T = 0", "setting": "immediately after preparation", "result": "0.265 g % g of solution"},
      {"measurement": "CONC at T = 1 week", "setting": "stored at 40° C., 1 week", "result": "0.245 g % g of solution"},
      {"measurement": "CONC at T = 2 weeks", "setting": "stored at 40° C., 2 weeks", "result": "0.253 g % g of solution"},
      {"measurement": "CONC at T = 3 weeks", "setting": "stored at 40° C., 3 weeks", "result": "0.263 g % g of solution"},
      {"measurement": "CONC at T = 4 weeks", "setting": "stored at 40° C., 4 weeks", "result": "0.248 g % g of solution"}
    ]}
  ]
}
